# Reference: article PMC7723054
# The list shows a part of the results.
# T1: LIN28A (human?, UniProt Q9H9Z2 1-209)
# T1 sequence: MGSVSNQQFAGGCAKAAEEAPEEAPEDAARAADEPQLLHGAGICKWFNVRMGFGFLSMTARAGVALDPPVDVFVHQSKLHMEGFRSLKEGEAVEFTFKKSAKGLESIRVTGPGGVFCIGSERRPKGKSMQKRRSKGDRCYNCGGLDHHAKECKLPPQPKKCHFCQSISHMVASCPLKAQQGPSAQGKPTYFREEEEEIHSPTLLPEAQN
# T2: CIRBP (Homo sapiens, UniProt Q14011 1-172)
# T2 sequence: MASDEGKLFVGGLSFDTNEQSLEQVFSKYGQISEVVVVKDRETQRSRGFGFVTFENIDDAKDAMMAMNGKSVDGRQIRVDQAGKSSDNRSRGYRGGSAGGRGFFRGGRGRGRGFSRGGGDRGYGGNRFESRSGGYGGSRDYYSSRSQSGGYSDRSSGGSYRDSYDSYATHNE
# T3: DHX36 (Homo sapiens, UniProt Q9H2U1 1-1008)
# T3 sequence: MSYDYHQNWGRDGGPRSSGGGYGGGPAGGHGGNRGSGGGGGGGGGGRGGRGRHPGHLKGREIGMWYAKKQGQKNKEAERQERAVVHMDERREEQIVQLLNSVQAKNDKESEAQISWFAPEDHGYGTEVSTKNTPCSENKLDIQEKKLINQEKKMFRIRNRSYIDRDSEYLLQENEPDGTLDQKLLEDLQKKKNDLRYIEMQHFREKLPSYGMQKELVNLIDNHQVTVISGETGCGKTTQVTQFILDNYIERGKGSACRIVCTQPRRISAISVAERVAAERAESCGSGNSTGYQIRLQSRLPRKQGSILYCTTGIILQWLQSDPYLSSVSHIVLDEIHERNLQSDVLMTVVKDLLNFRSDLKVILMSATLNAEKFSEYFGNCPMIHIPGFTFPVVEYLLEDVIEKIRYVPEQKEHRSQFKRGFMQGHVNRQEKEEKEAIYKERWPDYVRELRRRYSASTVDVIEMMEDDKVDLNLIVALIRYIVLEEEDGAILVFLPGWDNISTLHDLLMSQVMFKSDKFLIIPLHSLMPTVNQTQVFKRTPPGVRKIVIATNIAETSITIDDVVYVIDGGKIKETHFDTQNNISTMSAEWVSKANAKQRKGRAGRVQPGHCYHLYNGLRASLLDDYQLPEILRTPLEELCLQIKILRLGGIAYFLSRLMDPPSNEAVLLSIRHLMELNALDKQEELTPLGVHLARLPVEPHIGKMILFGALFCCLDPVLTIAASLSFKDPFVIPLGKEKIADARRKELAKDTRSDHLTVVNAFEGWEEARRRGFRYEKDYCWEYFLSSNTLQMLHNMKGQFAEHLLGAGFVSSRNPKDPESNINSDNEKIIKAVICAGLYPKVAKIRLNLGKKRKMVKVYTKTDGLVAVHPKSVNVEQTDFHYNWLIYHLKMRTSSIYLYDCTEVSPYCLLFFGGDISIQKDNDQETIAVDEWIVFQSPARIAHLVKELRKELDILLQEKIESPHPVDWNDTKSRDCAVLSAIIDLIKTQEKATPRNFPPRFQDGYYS
# B1: hsa-mir-4723 (structured_RNA)
# RNA: GGGAAAGCAGGUGUAUAGCCAUACCUCCGGUGUACGAAGUUUCAGCAGAGCACCUCCUAGAGAAUGUUGAACUAAAGGUGCCCGCUGAAGCUUCGUGCAC
# B2: hsa-mir-24-2 (structured_RNA)
# RNA: GGGACGAUGGCUUCCCGGUCCAAUCUUGGGUGUACGAAGUUUCAGCGCUGAAACACAGUUGGUUUGUGUACACUGGCGCUGAAGCUUCGUGCAC
# B3: hsa-mir-3661 (structured_RNA)
# RNA: GGGAAUACCGUGCAGGUCGUUCGACUUCGGUGUACGAAGUUUCAGCGCUGCUUGCACUCGUUCAGCGCUGAAGCUUCGUGCAC
# B4: PARIS_ID22 (structured_RNA)
# RNA: GGGACACACGGCGUCGAGGACUAAUAUUGGUGUACGAAGUUUCAGCGGCAGUGUCCAGAGGAGGCAGCAUCUGUAGGUGUCUUCACCUGCUCUGGCUCUUGGCACAUCUGGUUGGUGACACUGUUGCUGAAGCUUCGUGCAC
# B5: hsa-mir-3164 (structured_RNA)
# RNA: GGGAAAGUACUUCACUAACGGGAAACACGGUGUACGAAGUUUCAGCGGCGCACAGCAGACCCUGCAAUCAUGCCGCUGAAGCUUCGUGCAC
# B6: hsa-mir-4771-2_4771-1 (structured_RNA)
# RNA: GGGAAAAGGCCAACGCGCAUUACAGCUAGGUGUACGAAGUUUCAGCUGCUUCAGUUUCACUCCAAGCAGCUGAAGCUUCGUGCAC
# B7: hsa-mir-4422 (structured_RNA)
# RNA: GGGAAUUCGGUGUGAACACUAGCCGCAUGGUGUACGAAGUUUCAGCCCCACCAUGUACCAGUGGGGCUGAAGCUUCGUGCAC
# B8: hsa-mir-30d (structured_RNA)
# RNA: GGGAAUCGUCUGGGUUCACAGGGAGACGGGUGUACGAAGUUUCAGCGAAGCUGUAAGACACAGCUAAGCUUUGCUGAAGCUUCGUGCAC
# B9: hsa-mir-3136 (structured_RNA)
# RNA: GGGACGUUUCUUUACAGGGUACUGGAUAGGUGUACGAAGUUUCAGCGUCAUUUUUCUGUGACUGCACAUGGCGCUGAAGCUUCGUGCAC
# B10: PARIS_ID45 (structured_RNA)
# RNA: GGGAAGCUGUAAUAAUCUAACGCUAGGCGGUGUACGAAGUUUCAGCGUGAGAUGGGUUGAAAGCACGUGCUGCCAAAAUAGAAUAAUGUUGGUCCUCUCCUCAUGCUGAAGCUUCGUGCAC
# B11: U1A (structured_RNA)
# RNA: GGGACACGAGUUUGCCCGUUUAGGACUAGGUGUACGAAGUUUCAGCAUUGCACUCCGCUGAAGCUUCGUGCAC
# B12: hsa-mir-633 (structured_RNA)
# RNA: GGGAAAAUAUGCUCACGCUAGUACUCCCGGUGUACGAAGUUUCAGCUUAACCUAAAAUGAGAAGGCUAAGCUGAAGCUUCGUGCAC
# B13: hsa-mir-146b (structured_RNA)
# RNA: GGGACCUAGUACGGUGAAAUGUGGCGAUGGUGUACGAAGUUUCAGCGGCUGUGAGCUCUAGCAAUGCCCGCUGAAGCUUCGUGCAC
# B14: hsa-mir-6789 (structured_RNA)
# RNA: GGGAACUAAGAGGUACGUGCUGUGGGCAGGUGUACGAAGUUUCAGCCGCGGGCGGGUCCCAGGCUGGGCCCCUCGGAGGCCGGGUGCUCACUGCCCCGUCCCGGGCUGAAGCUUCGUGCAC
# B15: PARIS_ID41 (structured_RNA)
# RNA: GGGAAAUUCUAUAGUCACGGCGCGUCCCGGUGUACGAAGUUUCAGCACCUGCUCUGGCUCUUGGCACAUCUGGUUGGUGACACUGUUUUGUGAGAUGGGUGCUGAAGCUUCGUGCAC
# B16: hsa-mir-6841 (structured_RNA)
# RNA: GGGAAAGGGGUCCCUUAUCGGCUAAUAUGGUGUACGAAGUUUCAGCUUGUGAAACACAGGUGUUUUUUAACCUCACGCUGAAGCUUCGUGCAC
# B17: hsa-mir-3653 (structured_RNA)
# RNA: GGGAACCGCAUGGGGAAGGAUUCAAACAGGUGUACGAAGUUUCAGCCUUCCUGAGCACGCUCAUGAUGAGCAAACUGAGCCUCUAAGGCUGAAGCUUCGUGCAC
# B18: hsa-mir-6797 (structured_RNA)
# RNA: GGGAACUGUGCACGAGGUAGGUAUUUCAGGUGUACGAAGUUUCAGCAACAGGACCUGUGCUCACUGGGGCCUGCAGCUGAAGCUUCGUGCAC
# B19: hsa-mir-486-1 (structured_RNA)
# RNA: GGGACGCACUUUGUUCGGUGGAAUAACAGGUGUACGAAGUUUCAGCCCCGAGGCCCUUCAUGCUGCCCAGCUCGGGGCUGAAGCUUCGUGCAC
# B20: PARIS_ID34 (structured_RNA)
# RNA: GGGAAGGCCUACCGAUAGAAGGGCUAGUGGUGUACGAAGUUUCAGCGCUGGUGAUGCCCAACCCAGUGCUCUGCACCCAGGUCACACUGUGGCUUUGUCCUCUGCGCUGAAGCUUCGUGCAC
# B21: hsa-mir-450a-1 (structured_RNA)
# RNA: GGGAACAGAGCUGCUUUGUUACGUGCAAGGUGUACGAAGUUUCAGCUAAUAUGCACUAUAAAUAUAUUGGCUGAAGCUUCGUGCAC
# B22: hsa-mir-6803 (structured_RNA)
# RNA: GGGACUUGAAUUAUCGGGGCACAUCGCAGGUGUACGAAGUUUCAGCGGGCGUGGUGGACAGCGAUGCAUCCCGCUGAAGCUUCGUGCAC
# Target: U1A (Homo sapiens, UniProt P09012)
# Test: FOREST: bead pull-down of RNA structure library v1, barcode microarray; U1A/LIN28A: 20 mM HEPES pH 7.5, 80 mM KCl, 20 mM NaCl, 10% glycerol, 2 mM DTT, 0.1 ug/uL BSA, 4 C; BG4/CIRBP/DHX36: 10 mM Tris-HCl pH 7.5, 100 mM KCl (or LiCl),; high values mean tight binding
row,Binder,binding signal [z-score]
1,B1,1.56
2,B2,1.5
3,B3,10
4,B4,1.49
5,B5,1.52
6,B6,1.52
7,B7,1.49
8,B8,1.48
9,B9,2.9
10,B10,1.5
11,B11,11.6
12,B12,2.91
13,B13,1.5
14,B14,1.54
15,B15,1.56
16,B16,1.54
17,B17,1.49
18,B18,1.54
19,B19,1.53
20,B20,1.54
21,B21,1.54
22,B22,1.48

# Target: T1, LIN28A
# Test: as above
row,Binder,binding signal [z-score]
1,B1,-0.287
2,B2,0.503
3,B3,-0.951
4,B4,0.839
5,B5,-0.385
6,B6,0.112
7,B7,0.00564
8,B8,1
9,B9,0.269
10,B10,1.28
11,B11,-0.55
12,B12,-0.893
13,B13,0.714
14,B14,0.518
15,B15,1.4
16,B16,1.51
17,B17,-0.282
18,B18,1.09
19,B19,0.00354
20,B20,0.0644
21,B21,-0.56
22,B22,1.69

# Target: T2, CIRBP
# Test: as above
row,Binder,binding signal [z-score]
1,B1,-1.02
2,B2,-1.1
3,B3,-1.29
4,B4,0.154
5,B5,0.241
6,B6,0.67
7,B7,-1.38
8,B8,0.264
9,B9,-0.253
10,B10,-0.00719
11,B11,-0.873
12,B12,-1.01
13,B13,0.624
14,B14,-0.953
15,B15,0.363
16,B16,0.906
17,B17,-0.308
18,B18,0.791
19,B19,-0.718
20,B20,0.176
21,B21,-0.433
22,B22,1.95

# Target: T3, DHX36
# Test: as above
row,Binder,binding signal [z-score]
1,B1,0.11
2,B2,-0.385
3,B3,-0.753
4,B4,0.227
5,B5,-0.353
6,B6,0.876
7,B7,-0.884
8,B8,0.318
9,B9,0.0433
10,B10,-0.21
11,B11,-1.39
12,B12,-0.123
13,B13,0.514
14,B14,0.0115
15,B15,0.0944
16,B16,0.308
17,B17,0.193
18,B18,0.372
19,B19,0.248
20,B20,0.0604
21,B21,-1.3
22,B22,1.81
